scFv variants of Ab-14 (heavy chain) against a SARS-CoV-2 spike peptide

The target is the same throughout: PDVDLGDISGINAS, from the HR2 region of SARS-CoV-2 spike.

Parent: Ab-14, a human scFv built as VH, three GGGGS repeats, VL. Only the CDRs of the heavy chain vary.
VH: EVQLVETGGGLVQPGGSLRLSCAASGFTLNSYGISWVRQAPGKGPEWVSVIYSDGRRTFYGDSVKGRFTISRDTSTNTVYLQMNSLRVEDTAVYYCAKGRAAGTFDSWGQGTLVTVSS
VL: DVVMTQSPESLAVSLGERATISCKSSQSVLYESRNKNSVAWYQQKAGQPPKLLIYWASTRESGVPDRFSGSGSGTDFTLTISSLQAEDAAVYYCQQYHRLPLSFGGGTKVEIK

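The starting antibody came from a phage panning campaign against this peptide. This is the validation round: designs drawn from the data on random variants, tested in the same kind of assay. Group labels follow the data file (Ctrl: baseline library sampled from a position-specific scoring matrix, with some repeated check sequences; GPLM: also part of the Gaussian process libraries; Gibbs: Gibbs sampling; a sequence that several methods proposed may carry one label only). The scFvs were displayed on barcoded MATa yeast, the peptide on MATalpha yeast. Pairs that bind mate more often; barcode pairs of the diploids are counted by sequencing. A regression on co-assayed BCL2-family reference pairs converts the normalised counts of each replicate to an apparent Kd. The assay was run in six technical replicates.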

Substitutions are numbered in sequence along the VH above, starting at 1 (not Kabat).
The read-out is the apparent dissociation constant on a log10 scale (nM): the lower, the stronger.
"ND" means that the variant was in the library but no mating with the target was seen in that replicate; the authors take this as a sign of poor binding, and no number exists.
As a blank, each scFv also met three strains without target: over all heavy chain designs, 1% of these pairings were detected, typically at 2.08 and seldom below 0.84. Also given: how often the same scFv was detected with the empty control strains, with their mean in brackets.

| changes | group | log10 Kd, replicates | control signals |
|---|---|---|---|
| F27Y+N30A+R100W | Ctrl | ND ND ND ND ND ND | 0 of 18 |
| T28H+G61T | Ctrl | 0.32 ND 3.58 ND ND 2.29 | 0 of 18 |
| S53A+T104W | Ctrl | ND ND ND ND ND ND | 0 of 18 |
| K65P+A101F | Ctrl | ND ND ND ND ND ND | 0 of 18 |
| F59Y+T104H | Ctrl | ND ND ND ND ND ND | 0 of 18 |
| L29P+Y60M | Ctrl | ND ND ND ND ND ND | 0 of 18 |
| S31E+R100D+A101P+T104C+F105M | Ctrl | ND ND ND -0.90 ND ND | 0 of 18 |
| G61L+D62H | Ctrl | ND ND ND ND ND ND | 0 of 18 |
| G61A+A102K+G103I+T104V | Ctrl | ND ND ND ND ND ND | 0 of 18 |
| F27E+S107V | Ctrl | ND ND ND 3.44 2.95 ND | 1 of 18 (2.53) |
| F59G+T104P+D106N | Ctrl | ND ND ND ND ND ND | 0 of 18 |
| T28N+R100N+S107V | Ctrl | 0.26 0.63 ND 0.58 0.97 1.80 | 0 of 18 |
| I34R+R56Q+D62G | Ctrl | ND ND ND ND ND ND | 0 of 18 |
| K65V+R100K+A102P | Ctrl | 2.18 ND 1.00 ND 2.72 1.24 | 0 of 18 |
| R57K+F105W | Ctrl | ND ND 2.11 ND ND ND | 0 of 18 |
| G61H+S107H | Ctrl | ND 1.11 ND 1.99 ND 2.20 | 0 of 18 |
| G61T+A101I | Ctrl | ND ND ND ND 1.80 ND | 0 of 18 |
| G61S+F105A | Ctrl | ND ND ND ND ND ND | 1 of 18 (2.19) |
| T28V+L29W+S31D+I34S+S63D | Ctrl | ND ND ND ND ND ND | 0 of 18 |
| G26K+G61A | Ctrl | ND 1.62 ND ND 1.15 1.42 | 0 of 18 |
| R56C+G61Y | Ctrl | ND ND ND ND ND ND | 0 of 18 |
| T28D+S31K | Ctrl | 0.19 0.37 -0.09 0.14 -0.18 0.15 | 1 of 18 (2.15) |
| I34E+A101V | Ctrl | ND ND ND ND ND ND | 0 of 18 |
| T28R+S31E+G99R+R100K+A101Q+S107T | Ctrl | ND ND ND ND ND ND | 0 of 18 |
| T28N+R100N | Ctrl+GPLM_Gibbs | 0.04 0.56 0.12 1.39 0.53 1.37; 0.97 1.12 0.64 0.28 0.53 1.05 | 0 of 36 |
| N30G+G61D+R100V+D106I | Ctrl | ND ND ND ND ND ND | 0 of 18 |
| R100M+D106K | Ctrl | ND ND ND ND ND ND | 0 of 18 |
| T28D+G103D+F105T+D106I+S107L | Ctrl | ND ND ND ND ND ND | 0 of 18 |
| R56Y+F59A+G61A+A102K | Ctrl | ND ND ND ND ND ND | 1 of 18 (1.99) |
| L29R+S31D+R100Q+D106M | Ctrl | ND ND ND ND ND ND | 0 of 18 |
| N30E+R56E+G61I+A101R+T104E | Ctrl | ND ND ND ND ND ND | 0 of 18 |
| F27T+G61M+R100Q+A101V+A102T+D106N | Ctrl | ND ND ND ND ND ND | 0 of 18 |
| A102Y+T104P+F105V | Ctrl | ND ND ND ND ND ND | 0 of 18 |
| F59A+S107D | Ctrl | ND 1.46 1.62 ND 1.20 2.58 | 0 of 18 |
| F27H+N30E+S31K+D106C | Ctrl | ND ND ND ND ND ND; ND ND ND ND ND ND; ND ND ND ND ND ND; ND ND 1.52 ND ND ND; ND ND ND ND ND ND | 0 of 90 |
| F27R+G33D | Ctrl | ND ND ND ND ND ND | 1 of 18 (1.10) |
| S31K+Y32Q+R100M+A101W+T104A | Ctrl | ND ND ND ND ND 2.31 | 0 of 18 |
| T28A+D106R | Ctrl | ND ND ND ND ND ND | 0 of 18 |
| F59Q+G61S+R100S+D106F | Ctrl | ND ND ND ND 1.53 2.55 | 0 of 18 |
| S53A+S63R | Ctrl | 1.06 0.98 0.50 0.89 1.25 0.95 | 0 of 18 |
| G26D+T28D+G99C+F105S | Ctrl | ND ND ND ND ND ND | 0 of 18 |
| F27D+G61A+A101N+T104R | Ctrl | ND ND ND ND ND ND | 0 of 18 |
| F59H+G61V+G99Q+R100T+F105I | Ctrl | ND ND ND ND ND ND | 1 of 18 (1.68) |
| T28D+L29I+A101N | Ctrl | 0.09 -0.55 ND 0.18 ND ND | 0 of 18 |
| T28C+S63N+V64F+D106F | Ctrl | ND ND ND ND ND ND | 0 of 18 |
| F27E+L29A+A101V+F105D | Ctrl | ND ND ND ND ND ND | 3 of 18 (1.49) |
| F27E+F59A+D62G+R100S | Ctrl | ND 1.69 1.57 2.13 2.09 1.67 | 1 of 18 (2.42) |
| N30L+T104A+S107D | Ctrl | ND ND ND ND ND ND | 0 of 18 |
| T28A+K65D | Ctrl | ND ND ND 2.30 3.14 ND | 0 of 18 |

Repeated from above, the 3 best binders with a signal in all replicates:

changes,group,"log10 Kd, replicates",control signals
T28D+S31K,Ctrl,0.19 0.37 -0.09 0.14 -0.18 0.15,1 of 18 (2.15)
T28N+R100N,Ctrl+GPLM_Gibbs,0.04 0.56 0.12 1.39 0.53 1.37; 0.97 1.12 0.64 0.28 0.53 1.05,0 of 36
S53A+S63R,Ctrl,1.06 0.98 0.50 0.89 1.25 0.95,0 of 18

A sequence that the file lists under several names has all its replicates listed entry by entry, parted by semicolons.
Values of this round are not directly comparable with the first-round values of the same sequences.
The parent sequence was in this pool as ten entries: three were never detected, three once, and four in most replicates, with averages from 0.34 to 2.37.
In the paper, a design with two or fewer of six values counts as a poor binder.

Reference: Li et al. 2023, doi:10.1038/s41467-023-39022-2. File: FLAb, binding data.